“And” between values parts separate entries of the source, which are not always exact repeats. Identical values can stand only once.

Chains of the proteins cited; added tags and fusions are not shown. Residues count along the entry.
UniProt P22303, 32-614: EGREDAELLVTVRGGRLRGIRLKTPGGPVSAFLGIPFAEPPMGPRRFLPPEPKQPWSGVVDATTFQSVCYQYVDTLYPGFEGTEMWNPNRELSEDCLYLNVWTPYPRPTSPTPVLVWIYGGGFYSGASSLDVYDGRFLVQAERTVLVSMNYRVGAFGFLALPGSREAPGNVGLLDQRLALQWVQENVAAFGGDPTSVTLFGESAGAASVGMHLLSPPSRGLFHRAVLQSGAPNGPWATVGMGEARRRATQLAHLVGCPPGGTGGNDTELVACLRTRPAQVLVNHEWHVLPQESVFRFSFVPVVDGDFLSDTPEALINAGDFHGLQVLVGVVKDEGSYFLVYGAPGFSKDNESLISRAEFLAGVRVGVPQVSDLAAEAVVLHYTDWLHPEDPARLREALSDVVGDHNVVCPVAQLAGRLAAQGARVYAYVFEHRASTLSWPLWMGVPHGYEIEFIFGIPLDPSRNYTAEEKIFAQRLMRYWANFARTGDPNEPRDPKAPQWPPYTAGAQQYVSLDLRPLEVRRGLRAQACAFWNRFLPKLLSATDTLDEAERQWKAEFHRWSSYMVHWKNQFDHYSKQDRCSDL

One may read the IC50 as the concentration that inhibits the measured activity by half. The low end stands for greater potency in that assay, the high end for weaker potency in that assay.

For the experiment, the target named is T1, acetylcholinesterase (AChE) (Homo sapiens, UniProt P22303).
T1 construct: endogenous in cells; host or cells: SH-SY5Y human neuroblastoma cells (ECACC-94030304), undifferentiated and differentiated
Description: cell-based. Conditions: AChE Inhibition IC50.

As to `CNC(=O)O/N=C/C(C)(C)SC` [Aldicarb, [(E)-(2-methyl-2-methylsulfanylpropylidene)amino] N-methylcarbamate], the IC50 was 620 nM and 380 nM.

These data come from paper PMC10216341 (Brain Sciences, 2023).
